# Earlier results as cited in paper PMC11938273 (Journal of Chemical Information and Modeling, 2025).
# Settings: in vivo; cited from earlier work
smiles,measurement,value
"C[C@]12C=CC(=O)C=C1CC[C@H]1[C@@H]3C[C@@H](O)[C@](O)(C(=O)CO)[C@@]3(C)C[C@H](O)[C@@]12F [Triamcinolone, (11β,16α)-9-Fluoro-11,16,17,21-tetrahydroxypregna-1,4-diene-3,20-dione]",CNS status,Efflux transporter substrate
